Literature values in patent US8497287B2, “Aminotetralin compounds as mu opioid receptor antagonists” (priority 2007, dated 2013).

The chains behind the UniProt entries cited, without tags or fusion partners.
UniProt P41143, whole entry: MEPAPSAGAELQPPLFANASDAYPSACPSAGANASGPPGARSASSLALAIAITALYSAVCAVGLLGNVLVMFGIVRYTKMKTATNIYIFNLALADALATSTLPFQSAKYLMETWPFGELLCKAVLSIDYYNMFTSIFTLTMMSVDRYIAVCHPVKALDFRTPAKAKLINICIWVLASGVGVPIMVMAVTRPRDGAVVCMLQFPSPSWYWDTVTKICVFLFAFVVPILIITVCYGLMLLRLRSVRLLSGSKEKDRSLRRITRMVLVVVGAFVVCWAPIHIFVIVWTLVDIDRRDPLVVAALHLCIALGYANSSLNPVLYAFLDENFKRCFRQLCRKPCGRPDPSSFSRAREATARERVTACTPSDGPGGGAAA

Target: T1, Human delta opioid receptor (hDOP) membranes (Homo sapiens, UniProt P41143)
T1 construct: purchased Perkin Elmer
Conditions: saturation analyses, purchased membranes, cited from earlier work

## [^3H]-Natrindole
  reported pKd of radioligand for hDOP membranes: 9.85
read-out: reported Kd of radioligand for hDOP membranes
  Kd: 0.14 nM
